Compounds with a hit are over-represented: about 1.3% of the library has one in this group of screens.
ERAP1 HTS inh – inhibitors of human ERAP1 aminopeptidase; Q9NZ08; recombinant ERAP1, Leu-AMC fluorescence, 60 min; hit rate 0.15% among 340,000; inhibition, % at 10.7 µM;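 active means mean replicate inhibition of at least 30%, or all replicates individually reaching that 30% level; inactive means mean below 30% and not every replicate reaching it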
MLL AF4-AF9 inh – blocks AF4 peptide binding to human AF9; P42568; AlphaScreen, biotin-AF4 peptide binding to FLAG-AF9; inhibition, % at 10 µM; hit rate 0.47% among 350,000; AID 651704;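 active means every replicate reaching a set inhibition limit, whatever the replicate mean, cut at about 25% in these data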
E-selectin induc – E-selectin induction on HUVECs; HUVEC E-selectin immunofluorescence imaging; normalized: neutral wells 0, TNF-alpha wells 100; activation, % at 7.58 µM; hit rate 0.37% among 260,000;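 active means mean E-selectin-positive cell signal at least 10% of the positive control, reached in at least 60% of replicates, without over 20% cell loss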
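Material: HUVEC primary endothelial cells; Amount: 3,000 cells per well; Dosing: single concentration; Medium: EGM-2 growth medium on 0.1% gelatin-coated wells; Read-out basis: percent E-selectin-positive cells; Signal: immunofluorescence imaging; Control set: TNF-alpha, DMSO.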
S100A4 inh HTS – blocks human S100A4 binding to myosin IIA peptide. inhibition, % at 10.7 µM. AID 652163. S100A4/TAMRA-MyoIIA peptide fluorescence polarization. hit rate 0.14% among 360,000. P26447;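 active means mean inhibition of at least 70% across replicates, with every replicate also reaching that level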
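Test system – S100A4 monomer (human) · Compound – single-point compound testing · Schedule – 5 min incubation before reading · Probe or stimulus – TAMRA-labelled myosin IIA heavy-chain peptide probe, 5 nM · Benchmarks – neutral control DMSO, positive control TFP · Medium – Calcium-containing HEPES buffer, pH 7.2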
ARNT-TACC3 inh – ARNT/TACC3 interaction disruption; Q9Y6A5; AlphaScreen His-ARNT PAS-B/GST-TACC3 binding, luminescence; TACC3 fragment carries E629A point mutation; inhibition, % at 9.99 µM; hit rate 0.66% among 390,000; AID 623870;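 active means mean inhibition of replicates at least 50% and at least half of replicates each reaching 50%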
Yeast UUG start – alters start codon recognition fidelity in yeast. S. cerevisiae UUG-firefly luciferase reporter, luminescence/redox ratio. AID 602363. activity score, % at 18.7 µM. hit rate 0.13% among 350,000;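 active = replicate mean at a twofold rise or more, about +100% in these data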;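 note: firefly luciferase made from a UUG start codon reports start codon fidelity; reporter light over untreated wells divided by growth signal over untreated wells; some hits fall short of that in this replicate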
Each line names hits and unclear results; the compound was inactive in the other large screens.

C[C@@H]1CN([C@H](C)CO)C(=O)c2cccc(NC(=O)c3ccncc3)c2O[C@@H]1CN(C)Cc1ccc(Oc2ccccc2)cc1	MLL AF4-AF9 inh 25
C[C@@H]1CN([C@@H](C)CO)C(=O)c2cccc(NC(=O)c3ccncc3)c2O[C@H]1CN(C)Cc1ccc(Oc2ccccc2)cc1	none (no result: E-selectin induc)
C[C@@H]1CN([C@@H](C)CO)C(=O)c2cccc(NC(=O)C3CCOCC3)c2O[C@@H]1CN(C)Cc1ccc(C(=O)Nc2ccccc2N)cc1	S100A4 inh HTS 79 (no result: ARNT-TACC3 inh, Yeast UUG start)
C[C@@H]1CN([C@H](C)CO)C(=O)c2cccc(NC(=O)c3ccncc3)c2O[C@H]1CN(C)Cc1ccc(C(=O)Nc2ccccc2N)cc1	none
C[C@H]1CN([C@@H](C)CO)C(=O)c2cccc(NC(=O)c3ccncc3)c2O[C@H]1CN(C)Cc1ccc(C(=O)Nc2ccccc2N)cc1	E-selectin induc 51 (no result: ARNT-TACC3 inh, Yeast UUG start)
C[C@H](CO)N1C[C@H](C)[C@H](CN(C)Cc2ccc(C(=O)Nc3ccccc3N)cc2)Oc2c(NC(=O)C3CCOCC3)cccc2C1=O	none
COCC#Cc1cnc2c(c1)C(=O)N([C@@H](C)CO)C[C@H](C)[C@H](CN(C)C(=O)Nc1cc(F)ccc1F)O2	none (no result: Yeast UUG start)
CN1C(=O)c2cc(NC(=O)c3cccs3)ccc2OC[C@H]2O[C@@H](CC(=O)NCC(F)(F)F)CC[C@@H]21	none
C[C@H]1CN([C@@H](C)CO)C(=O)c2cc(NC(=O)C3CCCCC3)ccc2O[C@H]1CN(C)Cc1ccc(C(=O)Nc2ccccc2N)cc1	E-selectin induc 29
C[C@H]1CN([C@@H](C)CO)C(=O)c2cccc(NS(=O)(=O)c3cccs3)c2O[C@@H]1CN(C)Cc1ccc(C(=O)Nc2ccccc2N)cc1	E-selectin induc 392 (no result: ARNT-TACC3 inh, Yeast UUG start)
C[C@@H]1CN([C@@H](C)CO)C(=O)c2cccc(NS(=O)(=O)c3cccs3)c2O[C@@H]1CN(C)Cc1ccc(Cl)c(Cl)c1	none
C[C@@H]1CN([C@H](C)CO)C(=O)c2cccc(NS(=O)(=O)c3cccs3)c2O[C@H]1CN(C)Cc1ccc(Cl)c(Cl)c1	E-selectin induc 349
C[C@H](CO)N1C[C@H](C)[C@@H](CN(C)Cc2ccc(C(=O)Nc3ccccc3N)cc2)Oc2c(NS(=O)(=O)c3cccs3)cccc2C1=O	none (no result: ARNT-TACC3 inh, Yeast UUG start)
C[C@H](CO)N1C[C@H](C)[C@H](CN(C)C(=O)Nc2ccccc2)Oc2c(NS(=O)(=O)c3ccc(F)cc3)cccc2C1=O	none
CC(C)NC(=O)N(C)C[C@H]1Oc2ccc(NC(=O)CCN3CCOCC3)cc2CC(=O)N([C@H](C)CO)C[C@@H]1C	none
CO[C@@H]1CN(C)C(=O)c2ccc(NC(=O)C3CC3)cc2OC[C@@H](C)N(C(=O)c2ccncc2)C[C@H]1C	none (no result: Yeast UUG start)
C[C@H](CO)N1C[C@H](C)[C@H](CN(C)C(=O)Nc2ccc3c(c2)OCO3)Oc2c(NC(=O)NC3CCCCC3)cccc2C1=O	none (no result: ARNT-TACC3 inh)
CS(=O)c1ccccc1O (stereo not drawn)	none (no result: E-selectin induc)
O=S(c1ccccc1O)S(=O)c1ccccc1O (stereo not drawn)	ERAP1 HTS inh 99 (no result: E-selectin induc, Yeast UUG start)
O=C(CN(CC1CCCO1)C(=O)CNS(=O)(=O)c1ccccc1)NCc1ccc(F)cc1 (stereo not drawn)	E-selectin induc 26 (no result: ARNT-TACC3 inh)
O=C(CN(CC1CCCO1)C(=O)CNS(=O)(=O)c1ccc(F)cc1)NCc1ccc(F)cc1 (stereo not drawn)	none (no result: E-selectin induc)
Cc1ccc(S(=O)(=O)N(C)C[C@@H]2Oc3ncc(-c4ccncc4)cc3C(=O)N([C@H](C)CO)C[C@H]2C)cc1	none (no result: ARNT-TACC3 inh, Yeast UUG start)
C[C@H](CO)N1C[C@H](C)[C@H](CN(C)C)Oc2ccc(NC(=O)Cc3cn(C)c4ccccc34)cc2C1=O	E-selectin induc 37
COc1ccc(NC(=O)N(C)C[C@H]2Oc3ccc(NC(=O)Cc4cn(C)c5ccccc45)cc3C(=O)N([C@@H](C)CO)C[C@@H]2C)cc1	none
COc1ccc(NC(=O)N(C)C[C@H]2Oc3ccc(NC(=O)Cc4cn(C)c5ccccc45)cc3C(=O)N([C@H](C)CO)C[C@@H]2C)cc1	E-selectin induc 32
C[C@@H]1CN([C@H](C)CO)C(=O)c2cc(NC(=O)Cc3cn(C)c4ccccc34)ccc2O[C@@H]1CN(C)C	none (no result: ARNT-TACC3 inh)
COCC(=O)N1CC2(CCN(C(=O)CN3CCOCC3)CC2)c2c([nH]c3cc(OC)ccc23)[C@H]1CO	none (no result: ERAP1 HTS inh, S100A4 inh HTS, ARNT-TACC3 inh, Yeast UUG start)
CN(C)CCCNC(=O)[C@@H]1[C@@H](CO)[C@@H]2Cn3c(ccc(-c4cccc(C(=O)N(C)C)c4)c3=O)[C@H]1N2	none (no result: Yeast UUG start)
COc1ccc(C2c3ccc4ccccc4c3Oc3ncn(CCCN(C)C)c(=N)c32)cc1 (stereo not drawn)	MLL AF4-AF9 inh 33
O=C(Nc1ccc(F)cc1)N[C@@H]1CC[C@@H](CC(=O)N2CCCCC2)O[C@H]1CO	none (no result: ARNT-TACC3 inh)
Cc1ccc(Sc2ccc(CN3CCCC3)cc2[N+](=O)[O-])cc1	MLL AF4-AF9 inh 31
COc1cc(NC(=S)N2CCN(C)CC2)c(OC)cc1Cl	none (no result: E-selectin induc, Yeast UUG start)
COc1cc(NC(=S)N2CCOCC2)c(OC)cc1Cl	E-selectin induc 26 (no result: ERAP1 HTS inh)
O=C1c2cccc(Sc3ccccc3)c2C(=O)c2c(Sc3ccccc3)cccc21	Yeast UUG start 119
CCN1CCSc2ccc(C(=O)NCc3ccccc3Br)cc21	none
CCN1CCSc2ccc(C(=O)NCc3ccccc3C)cc21	MLL AF4-AF9 inh 49
CCN1CCSc2ccc(C(=O)NCc3ccccc3F)cc21	MLL AF4-AF9 inh 25 (no result: ARNT-TACC3 inh)
Cc1noc(C)c1S(=O)(=O)Nc1ccc2c(c1)C(=O)N([C@H](C)CO)C[C@H](C)[C@@H](CN(C)Cc1ccc(-c3ccccc3)cc1)O2	none
CCCC(=O)NC(NC(=S)Nc1ccc(S(N)(=O)=O)cc1)C(Cl)(Cl)Cl (stereo not drawn)	ARNT-TACC3 inh 28 (no result: ERAP1 HTS inh, MLL AF4-AF9 inh, E-selectin induc, S100A4 inh HTS, Yeast UUG start)
CCc1nnc(NC(=O)c2cc(S(=O)(=O)N3CCOCC3)ccc2N2CCCCC2)s1	ERAP1 HTS inh 56
CSc1ccccc1C(=O)N1CCN(c2cccc(Cl)c2)CC1	none (no result: E-selectin induc, Yeast UUG start)
CC(C)OC(=O)c1cccnc1N1CCN(c2cccc(Cl)c2)CC1	E-selectin induc 34 (no result: Yeast UUG start)
C[C@H](CO)N1C[C@H](C)[C@@H](CN(C)C(=O)Cc2ccccc2)OCCCC[C@H](C)Oc2ccc(NC(=O)CCC(F)(F)F)cc2C1=O	none (no result: ERAP1 HTS inh, MLL AF4-AF9 inh, E-selectin induc, S100A4 inh HTS)
O=C(Cn1c(=O)oc2cc(S(=O)(=O)NCc3ccccc3)ccc21)N1CCCC1	MLL AF4-AF9 inh 29 (no result: ERAP1 HTS inh)
COc1ccc(NS(=O)(=O)c2cccc(Cl)c2Cl)cc1S(=O)(=O)N1CCCCC1	E-selectin induc 134 (no result: Yeast UUG start)
CC=Cc1ccc2n(c1=O)C[C@@H]1[C@@H](CO)[C@H](C(=O)N3CCCCC3)[C@H]2N1Cc1ccccn1 (mixture of isomers)	none (no result: ERAP1 HTS inh, MLL AF4-AF9 inh, S100A4 inh HTS, Yeast UUG start)
Cc1[nH]c2ccccc2c1/C=N/NC(=O)c1cccc([N+](=O)[O-])c1	E-selectin induc 57 (no result: ARNT-TACC3 inh, Yeast UUG start)
